Biological target: T1, Caspase-3 (Homo sapiens, UniProt P42574)
T1 sequence (P42574 whole entry): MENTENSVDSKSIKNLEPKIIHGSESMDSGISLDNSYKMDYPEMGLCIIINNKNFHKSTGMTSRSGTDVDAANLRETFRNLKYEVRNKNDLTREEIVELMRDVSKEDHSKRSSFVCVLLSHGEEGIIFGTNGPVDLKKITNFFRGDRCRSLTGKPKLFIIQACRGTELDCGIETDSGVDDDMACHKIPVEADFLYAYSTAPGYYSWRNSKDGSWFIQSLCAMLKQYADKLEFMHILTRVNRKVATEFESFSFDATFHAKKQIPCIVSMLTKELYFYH
Assay: Caspase Inhibition Assay
Conditions: pH 7.5; 22 °C
Excerpt: The substrate peptides terminating in AMC are processed by caspases with or without inhibitors.

Compound `CC(=O)N[C@@H](CC(=O)O)C(=O)N[C@@H](CCC(=O)O)C(=O)N[C@H](C(=O)N[C@H](C=O)CC(=O)O)C(C)C` [(4S)-4-{[(1S)-1-{[(2S)-1-carboxy-3-oxopropan-2-yl]carbamoyl}-2-methylpropyl]carbamoyl}-4-[(3S)-3-acetamido-3-formamidopropanoic acid]butanoic acid] has an IC50 of 3.1 nM.

Source: BindingDB's records for doi:10.1021/jm048987t (Chemical Diversity Research Institute, 2005)
